# Source: patent publication US20070037752A1, “Novel alanyl-amino peptidase inhibitors for functionally influencing different cells and treating immunological, inflammatory, neuronal, and other diseases” (priority 2003, published 2007)
# Sequences of proteins named here, by UniProt entry; tags and fusion partners are left off. A change or cut given only in a name is not applied to a line headed by its entry.
# UniProt P15144: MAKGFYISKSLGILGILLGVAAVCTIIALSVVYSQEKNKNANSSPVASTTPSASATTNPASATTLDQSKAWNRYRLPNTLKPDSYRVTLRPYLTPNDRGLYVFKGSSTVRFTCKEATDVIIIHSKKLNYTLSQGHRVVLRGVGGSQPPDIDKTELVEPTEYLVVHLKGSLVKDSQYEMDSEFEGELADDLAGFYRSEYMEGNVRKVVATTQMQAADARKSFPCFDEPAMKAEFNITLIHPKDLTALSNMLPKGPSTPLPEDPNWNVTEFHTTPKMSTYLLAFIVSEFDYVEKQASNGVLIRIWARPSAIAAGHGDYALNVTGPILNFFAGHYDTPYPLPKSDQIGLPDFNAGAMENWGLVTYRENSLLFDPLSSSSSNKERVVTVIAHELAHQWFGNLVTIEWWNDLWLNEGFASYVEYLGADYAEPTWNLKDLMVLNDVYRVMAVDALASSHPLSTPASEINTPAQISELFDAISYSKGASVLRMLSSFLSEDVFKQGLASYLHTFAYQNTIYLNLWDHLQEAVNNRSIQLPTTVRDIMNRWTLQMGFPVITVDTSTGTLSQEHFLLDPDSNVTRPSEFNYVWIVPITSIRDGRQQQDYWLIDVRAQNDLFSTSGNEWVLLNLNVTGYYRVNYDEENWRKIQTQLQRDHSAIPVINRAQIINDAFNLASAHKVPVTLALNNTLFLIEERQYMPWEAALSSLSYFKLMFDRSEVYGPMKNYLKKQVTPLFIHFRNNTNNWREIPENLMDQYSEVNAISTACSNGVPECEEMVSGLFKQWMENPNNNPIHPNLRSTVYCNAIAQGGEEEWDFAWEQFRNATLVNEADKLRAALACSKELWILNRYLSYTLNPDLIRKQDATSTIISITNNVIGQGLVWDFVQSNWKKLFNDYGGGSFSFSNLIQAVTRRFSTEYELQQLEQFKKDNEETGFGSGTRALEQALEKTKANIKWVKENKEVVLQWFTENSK
# pIC50: −log10 of the molar value. Read-outs that look alike come from different tables or passages of the source.
# Biological target: alanyl aminopeptidases (APN) (Homo sapiens, UniProt P15144)
# Experiment: Inhibition of alanyl aminopeptidase enzymatic activity, fluorogenic substrate (Ala)2-rhodamine 110
# Type: biochemical
# Details: read-out: IC50APN
Compound,"pIC50 (Table 8, unstarred values)","pIC50 (Table 9, unstarred values)","pIC50 (Table 3, unstarred values)",pIC50 (Table 12)
Cc1cc(N(C)C)cc[n+]1C(=O)N(C)C,4.56,4.56,–,–
Cn1nc([N+](=O)[O-])nc1-n1cc([N+](=O)[O-])cn1,4.46,–,4.46,–
O=C(NC(Sc1ncccn1)C(Cl)(Cl)Cl)c1ccccc1 (stereo not drawn),–,4.75,–,4.75
